How the values were obtained:
[1] = biological target: human opioid receptor-like (ORL-1) (Homo sapiens (Human), UniProt P41146); test: ORL-1 receptor [35S]GTPγS functional binding assay; type: biochemical; conditions: ORL-1 GTPγS
human μ-receptors = human μ-receptors (Homo sapiens (Human), UniProt P35372); test: In vitro mu-opioid receptor [35S]GTPγS functional assay

| SMILES | GTPγS Emax [mean ± SEM] ORL-1 [1] [%] | GTPγS Emax [mean ± SEM] Opioid Receptor Mu (human μ-receptors) [%] |
| --- | --- | --- |
| CC1(C)[C@H]2CC[C@@H](CCN3[C@@H]4CCC[C@H]3C[C@@H](n3c(=O)c(N5CC[C@H]5C(=O)O)nc5ccccc53)C4)[C@@H]1C2 | 53.7 ± 3.8 | 25.3 ± 1.8 |
| O=C(O)[C@H]1CCN1c1nc2ccccc2n([C@H]2C[C@H]3CCC[C@@H](C2)N3[C@H]2C[C@@H]3CCC[C@@H](C3)C2)c1=O | 27.3 ± 1.7 |  |
| CO[C@H]1CN(c2nc3ccccc3n([C@H]3C[C@H]4CCC[C@@H](C3)N4[C@@H]3C[C@@H]4CCCC[C@@H](C4)C3)c2=O)[C@@H]1C(=O)O | 24 ± 1 |  |
| O=C(O)[C@H]1CCN1c1nc2ccccc2n([C@H]2C[C@H]3CCC[C@@H](C2)N3[C@@H]2C[C@@H]3CCCC[C@@H](C3)C2)c1=O | 29.0 ± 0.6 | 9.0 ± 0.6 |
| CO[C@H]1CN(c2nc3ccccc3n([C@H]3C[C@H]4CCC[C@@H](C3)N4[C@H]3C[C@@H]4CCC[C@@H](C4)C3)c2=O)[C@@H]1C(=O)O | 22.3 ± 1.0 |  |
| CC(=O)N[C@@H]1CN(c2nc3ccccc3n([C@H]3C[C@H]4CCC[C@@H](C3)N4[C@@H]3C[C@@H]4CCCC[C@@H](C4)C3)c2=O)[C@@H]1C(=O)O | 19.75 ± 0.48 |  |
| O=C(O)[C@@H]1CCN1c1nc2ccccc2n([C@H]2C[C@H]3CCC[C@@H](C2)N3[C@H]2C[C@@H]3CCC[C@@H](C3)C2)c1=O | 29.0 ± 0.9 | 12.0 ± 2.1 |
| O=C(O)CC1CN(c2nc3ccccc3n([C@H]3C[C@H]4CC[C@@H](C3)N4[C@@H]3C[C@@H]4CCCC[C@@H](C4)C3)c2=O)C1 | 47.3 ± 2.2 |  |
| CN(C)[C@@H]1CN(c2nc3ccccc3n([C@H]3C[C@H]4CCC[C@@H](C3)N4[C@@H]3C[C@@H]4CCCC[C@@H](C4)C3)c2=O)[C@@H]1C(=O)O | 28.7 ± 1.2 |  |
| C[C@@H]1C[C@@H]2C[C@H](C1)C[C@@H](N1[C@@H]3CC[C@H]1C[C@@H](n1c(=O)c(N4CC[C@@H]4C(=O)O)nc4ccccc41)C3)C2 | 38.7 ± 3.5 | 19.7 ± 0.9 |
| C[C@@H]1C[C@@H]2C[C@H](C1)C[C@@H](N1[C@@H]3CC[C@H]1C[C@@H](n1c(=O)c(N4CC[C@H]4C(=O)O)nc4ccccc41)C3)C2 | 47.3 ± 4.8 | 36.7 ± 5.8 |
| C[C@@H]1C[C@@H]2C[C@H](C1)C[C@@H](N1[C@@H]3CCC[C@H]1C[C@@H](n1c(=O)c(N4CC(C(=O)O)C4)nc4ccccc41)C3)C2 | 29.3 ± 3.0 |  |
| C[C@@H]1C[C@@H]2C[C@H](C1)C[C@@H](N1[C@@H]3CCC[C@H]1C[C@@H](n1c(=O)c(N4CC[C@@H]4C(=O)O)nc4ccccc41)C3)C2 | 24.0 ± 0.6 |  |
| CC1(C)[C@H]2CC[C@@H](CCN3[C@@H]4CCC[C@H]3C[C@@H](n3c(=O)c(N5CC(C(=O)O)C5)nc5ccccc53)C4)[C@@H]1C2 | 58.3 ± 4.5 | 67.7 ± 2.9 |
| O=C(O)C1CN(c2nc3ccccc3n([C@H]3C[C@H]4CCC[C@@H](C3)N4C3CCCCCCCCC3)c2=O)C1 | 103.0 ± 2.1 |  |
| CC1(C)[C@H]2CC[C@@H](CCN3[C@@H]4CCC[C@H]3C[C@@H](n3c(=O)c(N5CC[C@@H]5C(=O)O)nc5ccccc53)C4)[C@@H]1C2 | 51.3 ± 5.8 |  |
| CC[C@@H]1C[C@@H]2C[C@H](C1)C[C@@H](N1[C@@H]3CCC[C@H]1C[C@@H](n1c(=O)c(N4CC[C@H]4C(=O)O)nc4ccccc41)C3)C2 [B20a(ii)] | 51.3 ± 0.3 | 30.3 ± 1.7 |
| O=C(O)CC1CN(c2nc3ccccc3n([C@H]3C[C@H]4CCC[C@@H](C3)N4[C@@H]3C[C@@H]4CCCC[C@@H](C4)C3)c2=O)C1 | 23.7 ± 2.0 |  |
| O=C(O)[C@@H]1CCN1c1nc2ccccc2n([C@H]2C[C@H]3CC[C@@H](C2)N3[C@@H]2C[C@@H]3CCCC[C@@H](C3)C2)c1=O | 50.3 ± 4.4 | 23.3 ± 0.3 |
| C[C@@H]1C[C@@H]2C[C@H](C1)C[C@@H](N1[C@@H]3CCC[C@H]1C[C@@H](n1c(=O)c(N4CC(CC(=O)O)C4)nc4ccccc41)C3)C2 | 26.0 ± 2.5 |  |
| N[C@@H]1CN(c2nc3ccccc3n([C@H]3C[C@H]4CCC[C@@H](C3)N4[C@@H]3C[C@@H]4CCCC[C@@H](C4)C3)c2=O)[C@@H]1C(=O)O | 25.67 ± 1.45 |  |
| O=C(O)[C@@H]1CCN1c1nc2ccccc2n([C@H]2C[C@H]3CCC[C@@H](C2)N3[C@@H]2C[C@@H]3CCCC[C@@H](C3)C2)c1=O | 41.0 ± 0.6 |  |
| C[C@@H]1C[C@@H]2C[C@H](C1)C[C@@H](N1[C@@H]3CCC[C@H]1C[C@@H](n1c(=O)c(N4CC[C@H]4C(=O)O)nc4ccccc41)C3)C2 | 61 ± 5 |  |

Source: patent publication US9290488B2, “Azetidine-substituted quinoxalines as opioid receptor like-1 modulators” (priority 2011, dated 2016)
